# Binding of CDR-mutated scFvs to a peptide of the spike HR2 region

Data: MIT Lincoln Laboratory AlphaSeq set, Engelhart et al. 2022, doi:10.1038/s41597-022-01779-4, as distributed in FLAb.

Binding partner: SARS-CoV-2 spike HR2 peptide, sequence PDVDLGDISGINAS.

Each scFv is VH, a 15-residue (Gly4Ser)3 linker, VL, as in the parent Ab-95, and differs from it in the CDRs of the light chain only.
VH: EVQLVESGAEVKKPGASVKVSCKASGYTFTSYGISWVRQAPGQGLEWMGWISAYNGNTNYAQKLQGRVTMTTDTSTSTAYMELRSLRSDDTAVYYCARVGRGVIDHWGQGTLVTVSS
VL: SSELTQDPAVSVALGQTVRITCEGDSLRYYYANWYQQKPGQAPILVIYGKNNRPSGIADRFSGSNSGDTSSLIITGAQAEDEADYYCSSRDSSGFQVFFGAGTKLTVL

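The parent was found by panning a naive human phage display library on the peptide. The library (AAYL52) carries one to three amino acid substitutions per variant, with no insertions or deletions. AlphaSeq pools MATa yeast showing the antibodies with MATalpha yeast showing the peptide. The frequency of each diploid, read from paired DNA barcodes, reflects how well the two displayed proteins bind. A regression on co-assayed BCL2-family reference pairs converts the normalised counts of each replicate to an apparent Kd. There are three technical replicates.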

Changes read parent residue, position, new residue, counted from the first residue of the VL shown.
This list gathers variants with a substitution at Q96 (VL, numbered from residue 1).
Kd is apparent (estimated from mating counts) and averaged on the log scale over replicates with a signal. Smaller is tighter.
"no signal" means that the variant was in the library but no mating with the target was seen in any replicate; the authors take this as a sign of poor binding, and no number exists.

changes	Kd	detected	signal with controls
Y29W S92C Q96L	1.3 µM	3 of 3	6 of 9
Y30M Q96K V97F	230 nM	1 of 3	0 of 9
A32L Q96F	1.2 µM	1 of 3	4 of 9
N33V S55I Q96T	150 µM	2 of 3	4 of 9
N33H Q96H	5.1 µM	2 of 3	2 of 9
N51R Q96K	13 µM	3 of 3	4 of 9
D25A G94P Q96G	no signal	0 of 3	1 of 9
E23G N51T Q96C	2.7 µM	3 of 3	2 of 9
N52L R53I Q96M	11 µM	2 of 3	2 of 9
N52K Q96S F98G	1.4 µM	2 of 3	2 of 9
R53N S92K Q96E	1.4 µM	3 of 3	1 of 9
D25L K50R Q96P	1.4 µM	3 of 3	2 of 9
R90G Q96D	230 nM	3 of 3	2 of 9
K50S S93K Q96N	870 nM	3 of 3	2 of 9
N52A S92Y Q96G	no signal	0 of 3	2 of 9
N33W R90A Q96E	93 µM	2 of 3	1 of 9
K50T S88Y Q96F	no signal	0 of 3	1 of 9
L27E G94H Q96A	57 µM	2 of 3	1 of 9
R90S D91G Q96P	15 µM	2 of 3	2 of 9
G49E Q96C	2.7 µM	3 of 3	1 of 9
A32Q S92M Q96H	no signal	0 of 3	0 of 9
S89M Q96K F98Y	76 µM	2 of 3	2 of 9
E23N S55M Q96K	500 nM	3 of 3	0 of 9
S55E S93P Q96K	260 nM	3 of 3	4 of 9
S89V S93D Q96A	1.6 µM	3 of 3	3 of 9
Y31P S88V Q96M	21 nM	3 of 3	4 of 9
R90G Q96M	230 nM	3 of 3	3 of 9
Q96V F98V	34 µM	1 of 3	4 of 9
Y29C G49D Q96V	10 µM	1 of 3	1 of 9
P54I S93F Q96I	11 µM	3 of 3	5 of 9
D25C Y30P Q96I	7.0 µM	3 of 3	3 of 9
R28Y S88W Q96S	25 µM	2 of 3	1 of 9
G49N K50C Q96A	19 µM	3 of 3	6 of 9
Y30W Y31E Q96N	19 nM	3 of 3	4 of 9
P54L Q96R	460 nM	3 of 3	0 of 9
E23G Y29V Q96P	18 µM	3 of 3	3 of 9
Y30A Q96I	50 nM	3 of 3	2 of 9
N33F Q96W F98I	8.3 µM	2 of 3	2 of 9
S89K S92G Q96K	19 µM	1 of 3	4 of 9
E23N Q96L	740 nM	3 of 3	4 of 9
G24R Y29R Q96G	460 µM	1 of 3	4 of 9
N51H S92M Q96N	1.0 µM	3 of 3	1 of 9
P54T Q96E V97C	820 nM	3 of 3	2 of 9
G49N P54W Q96N	no signal	0 of 3	1 of 9
Q96R	210 nM	3 of 3	4 of 9
Y31R D91Y Q96V	200 nM	3 of 3	4 of 9
K50C Q96P V97W	6.5 µM	3 of 3	0 of 9
N52P D91Y Q96V	10 µM	3 of 3	4 of 9
R53H R90S Q96W	1.6 µM	3 of 3	2 of 9
S26P N52M Q96W	2.5 µM	2 of 3	3 of 9
D91N Q96L	1.9 µM	3 of 3	4 of 9
G24Q N33D Q96G	350 µM	1 of 3	2 of 9
G49N K50E Q96V	380 nM	3 of 3	4 of 9
G24A N51C Q96C	no signal	0 of 3	1 of 9
D25P L27V Q96R	7.6 µM	1 of 3	2 of 9
Q96D V97Y	260 nM	3 of 3	1 of 9
L27N S93D Q96G	no signal	0 of 3	0 of 9
L27I S88P Q96C	79 µM	2 of 3	1 of 9
N33P K50H Q96G	6.7 µM	2 of 3	4 of 9
K50G S88R Q96W	250 nM	3 of 3	4 of 9
D25E N33P Q96N	4.6 nM	3 of 3	3 of 9
R53K Q96I	19 µM	1 of 3	1 of 9
D25H S89Y Q96K	no signal	0 of 3	3 of 9
Y29D S93L Q96M	25 nM	3 of 3	4 of 9
Y31Q N33F Q96D	no signal	0 of 3	1 of 9
G94L Q96M V97G	19 µM	1 of 3	1 of 9
R53K S89P Q96V	no signal	0 of 3	1 of 9
D25F S55Q Q96M	410 nM	3 of 3	1 of 9
Q96S	190 nM	3 of 3	6 of 9
F95D Q96K V97A	1.1 µM	3 of 3	1 of 9
S88Q S92K Q96I	180 nM	3 of 3	1 of 9
A32E G49T Q96T	3.6 µM	1 of 3	1 of 9
L27E R28P Q96S	13 µM	2 of 3	2 of 9
E23S R28W Q96D	1.4 µM	3 of 3	5 of 9

The last 4 entries again:

changes	Kd	detected	signal with controls
S88Q S92K Q96I	180 nM	3 of 3	1 of 9
A32E G49T Q96T	3.6 µM	1 of 3	1 of 9
L27E R28P Q96S	13 µM	2 of 3	2 of 9
E23S R28W Q96D	1.4 µM	3 of 3	5 of 9

For reference, the parent read 200 nM as the reference entry and 180 nM as a member of this library.
As a blank, each scFv also met three strains without target: over library AAYL52, 28% of these pairings were detected, typically at 8.2 µM and seldom below 800 nM. Also given: how often the same scFv was detected with the empty control strains.